# Molecular target: T1, 5-lipoxygenase (Rattus norvegicus, UniProt P12527)
# T1 sequence (P12527 1-673): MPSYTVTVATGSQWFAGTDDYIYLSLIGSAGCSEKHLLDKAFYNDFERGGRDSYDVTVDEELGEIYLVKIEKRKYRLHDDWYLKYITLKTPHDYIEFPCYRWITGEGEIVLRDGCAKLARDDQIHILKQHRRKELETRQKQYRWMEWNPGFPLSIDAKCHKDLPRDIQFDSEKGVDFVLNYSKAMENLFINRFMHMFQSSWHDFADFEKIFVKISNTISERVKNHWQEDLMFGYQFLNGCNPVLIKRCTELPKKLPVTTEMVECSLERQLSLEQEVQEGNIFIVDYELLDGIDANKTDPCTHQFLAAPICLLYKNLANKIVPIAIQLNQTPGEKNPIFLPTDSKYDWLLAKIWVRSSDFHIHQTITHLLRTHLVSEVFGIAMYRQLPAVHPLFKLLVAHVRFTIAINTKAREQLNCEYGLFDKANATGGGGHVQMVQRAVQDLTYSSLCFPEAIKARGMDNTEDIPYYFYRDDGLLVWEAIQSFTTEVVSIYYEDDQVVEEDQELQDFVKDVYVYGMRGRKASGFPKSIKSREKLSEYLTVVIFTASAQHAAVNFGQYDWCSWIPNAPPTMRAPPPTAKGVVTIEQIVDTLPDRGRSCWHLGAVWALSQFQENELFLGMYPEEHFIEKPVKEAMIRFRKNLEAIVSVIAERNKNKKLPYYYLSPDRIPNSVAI
# Test: biochemical
# Details: reference compound; read-out: IC50, reference compounds, 5-lipoxygenase
compound,measurement,value
"NC1=NN(c2cccc(C(F)(F)F)c2)CC1 [BW-755C, reference compound]",IC50,6.6 µM

# — patent US6039950A, “Pharmaceutical grade saw palmetto” (priority 1997, dated 2000)
